Bioassay records from PubChem.
Shown are actives, neighbours in structure and some others; about 1.7% of the full set was active somewhere.
GLP-1R inv ag: inverse agonists of human GLP-1 receptor; 1.6% of 410,000 active; Potency, µM (doses to about 38.3 µM), for the others: at the top dose activity change, negative = inhibition, usual class: inhibitors; HEK293 GLP-1R CRE-luciferase, luminescence, 24 h; GLP-1R form is constitutively active; further: potency means the concentration at half of the fitted maximal effect; on the % scale 0 is the no-effect control and ±100 the full control effect; nearly all actives have a fitted effect of over 55% in size
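Readout was luciferase luminescence, measured 12 min after detection reagent at room temperature. Beforehand, GLP-1R reporter HEK293 cells had sat 12 h, then received compounds for 24 hr at 37 deg C.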
PTHR1 agonist: agonists of human PTHR1 parathyroid hormone receptor. Q03431. HEK293 GP2 PTHR1 cells, GloSensor cAMP luminescence, 1 h. Potency, µM (series often up to 115 µM), inactives show at the top dose activation, most hits filed as activators. 0.075% of 410,000 active; further: potency means the concentration at half of the fitted maximal effect; nearly all actives have a fitted effect of over 55% in size
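HEK-293-derived GP2 cells expressing PTHR1 and a GloSensor cAMP reporter, 3,000/well, plated overnight, given luciferin plus IBMX (each 0.5 mM as added) for 1 h at 37 °C, then compound for 1 h at 37 °C. Luminescence was read after 15 min at room temperature.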
GLP-1R agonist: GLP-1 receptor (human) agonism. 0.007% of 380,000 active. HEK293 GLP-1R CRE-luciferase, luminescence, 4-6 h; cells express a hypersensitive GLP-1R form. Potency, µM (highest dose often 45.6 µM), without a hit: at the highest dose activation, actives largely listed as activators. P43220; further: potency means the concentration at half of the fitted maximal effect; % of control where 0% means no effect
miR-21 reporter: raises the signal of a miR-21 reporter | HeLa miR-21 FLuc reporter, luciferase, 48 h | Potency, µM (highest dose often 38.3 µM), for inactives: at the highest dose reporter change, positive = more light | 340,000 tested, under 10 active | AID 2288; active = well fitted rising curve with a large enough effect; inconclusive = small, poorly fitted or top-dose-only effect; inactive = no such curve, though single readings can be large or run the other way;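 also: % of control where 0% means no effect; miR-21 action dims this reporter so a rising signal means less miR-21 action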
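Using DMEM plus 10% FBS, HeLa miR-21-FLuc cells are incubated with test compounds (final up to about 40uM) for 48 hours; firefly luciferase signal is then imaged following reagent-mediated lysis.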
Pin1 inhibitor: inhibitors of human Pin1. Pin1 FP peptide displacement, HiFluor488, 10 min. Potency, µM (series often up to 115 µM), without a hit: at the highest dose activity, negative = inhibition, usual class: inhibitors. Q13526. 0.009% of 390,000 active; active means well fitted inhibition curve with a large enough effect in the polarisation, with a control signal flat, not every such curve was filed as active; inconclusive means small, poorly fitted or top-dose-only effect, or effect the other way, or a change in a side signal; inactive means no such curve, though single readings can be large or run the other way; the % refers to the polarisation; further: potency means the concentration at half of the fitted maximal effect; on the % scale 0 is the no-effect control and ±100 the full control effect
GLP1R cytotox: cytotoxicity counter-screen for GLP-1 receptor inverse agonists | HEK293 cAMP-luciferase reporter cells, luminescence, 24 h | Potency, µM (series often up to 38.3 µM), for inactives: at the top dose activity change, negative = inhibition, hits mostly inhibitors | 0.13% of 410,000 active;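 further: loss of luciferase light is scored as toxicity; potency means the concentration at half of the fitted maximal effect; on the % scale 0 is the no-effect control and ±100 the full control effect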
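A 23 nL compound transfer followed 12 hours of cell culture at 37 deg C; exposure then lasted 24 hr. Luciferase assay detection reagent was dispensed and plates read for luminescence after a 12 min room-temperature wait.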
Starred values were filed as active, the others as inactive; i = inactive; u = inconclusive; x = no result given; [ ] = dose if it differs, or a comment. Unless noted, the call rests on the fitted dose curve; in most records, active means well fitted curve in the direction sought with a large enough effect; inconclusive means small, poorly fitted or top-dose-only effect, or another doubt; inactive means no such curve, though single readings can be large; an effect the other way counts as inactive or inconclusive.

nr	Molecule	Pin1 inhibitor	GLP-1R inv ag	GLP1R cytotox
1	O=C(NC1CCCC1)C(c1ccccc1)N(Cc1ccc2c(c1)OCO2)C(=O)Cc1cccs1 (stereo not given)	4%	10µM*	-9%
2	O=C(NCc1ccccc1)C(c1ccccc1)N(Cc1ccc2c(c1)OCO2)C(=O)Cc1cccs1 (stereo not given)	35%	7.9µM*	-26%
3	O=C(Cc1cccs1)NCc1ccc2c(c1)OCO2	0%	145%	25%
4	COc1ccc(CNC(=O)c2oc3c(c2C)-c2nn(Cc4ccc(Cl)cc4)cc2CC3)cc1	u	u	4%
5	CCCc1cc(=O)[nH]c(Nc2cc(Cl)cc(Cl)c2)n1	5%	u	-24%
6	CCOc1ccc(NC(=O)CC2C(=O)N(c3ccc(Cl)cc3)C(=O)N2Cc2cccs2)cc1 (stereo not given)	-2%	5%	1%
7	COc1cc(OC)c(-c2c3cc(O)c(=O)cc-3oc3cc(O)c(O)cc23)cc1OC	u	4.5µM*	u
8	COc1ccc(C2N(Cc3ccccc3)C(=O)c3ccccc3N2C)cc1COc1ccc(NC(C)=O)cc1 (stereo not given)	24%	x	x
9	CC(Oc1cccc(Cl)c1)C(=O)Nc1nc(-c2ccccn2)cs1 (stereo not given)	1%	5µM*	u
10	CC(Oc1ccccc1)C(=O)Nc1nc(-c2ccccn2)cs1 (stereo not given)	1%	u	u
11	O=C(O)c1cc(-c2ccco2)nc2ccccc12	u	2%	-10%
12	O=C(NC1CC1)c1cc(-c2ccco2)nc2ccccc12	21µM*	8%	-12%

nr	GLP-1R agonist	PTHR1 agonist	miR-21 reporter
1	-4%	i	9%
2	-6%	-5%[57.5 µM]	-2%
3	0%	i	-40%
4	x	-32%	0%
5	x	-48%	u
6	x	i	11%
7	-3%	-3%	14%
8	x	x	x
9	1%	-17%	x
10	11%	-13%	x
11	-2%	i	-4%
12	1%	i	1%

Additional records
nr	Molecule	Pin1 inhibitor	GLP-1R inv ag	GLP1R cytotox
13	CCN1c2cc(C)ccc2-n2cccc2C12CCN(C(=O)Nc1cc(OC)c(OC)c(OC)c1)CC2	u	11µM*	-6%
14	CCN1c2ccccc2-n2cccc2C12CCN(C(=O)Nc1ccccc1Br)CC2	20%	10µM*	0%
15	Cc1cccc(N2CCN(C(=O)c3cnn(-c4ccccc4)c3C3CCN(C(=O)OC(C)(C)C)CC3)CC2)c1C	-1%	4%	-5%
16	COc1ccc(N=C(c2ccccc2)c2c(C)[nH]n(-c3ccccc3)c2=O)c(OC)c1	11%	7.9µM*	10%
17	N#Cc1ccc(N2CCN(S(=O)(=O)c3ccc4c(c3)CC(=O)N4)CC2)cc1	13%	x	x
18	CCOC(=O)c1cnn(-c2ccc(Cl)cc2)c1C1CCN(C(=O)OC(C)(C)C)CC1	1%	10µM*	15%
19	Cc1ccc(-n2ncc(C(=O)NCCc3c[nH]c4ccccc34)c2C2CCN(C(=O)OC(C)(C)C)CC2)cc1C	14%	11µM*	-9%
20	Cc1cc(O)cc(O)c1-c1onc(C(F)(F)F)c1-c1cscn1	3%	7.9µM*	-20%
21	CCOc1ccc(-c2onc(C(F)(F)F)c2-c2cscn2)c(O)c1	-3%	-10%	-20%
22	COC(=O)c1ccccc1-c1ccc(/C=N/Nc2nc(N3CCCC3)nc(N3CCCC3)n2)o1	6%	10µM*	u
23	CCCN(CCC)c1nc(N)nc(-c2cc(Cl)ccc2OC)n1	3%	8.9µM*	-18%
24	CCCNc1nc(N)nc(-c2cc(Cl)ccc2OC)n1	-2%	11%	-8%

nr	GLP-1R agonist	PTHR1 agonist	miR-21 reporter
13	x	i	20%
14	x	i	-1%
15	x	-13%	u
16	10%	-6%	16%
17	x	x	x
18	-3%	-21%	1%
19	-4%	6%	u
20	-14%	-29%[57.5 µM]	27%
21	-8%	-27%	20%
22	8%	-21%	15%
23	22%	i	-5%
24	6%	i	-9%

One compound at a time, from the list above:
Shown for N#Cc1ccc(N2CCN(S(=O)(=O)c3ccc4c(c3)CC(=O)N4)CC2)cc1 = Pin1 inhibitor: 13%; GLP-1R inv ag: x; GLP1R cytotox: x; GLP-1R agonist: x; PTHR1 agonist: x; miR-21 reporter: x
Shown for CCOC(=O)c1cnn(-c2ccc(Cl)cc2)c1C1CCN(C(=O)OC(C)(C)C)CC1 = Pin1 inhibitor: 1%; GLP-1R inv ag: 10µM*; GLP1R cytotox: 15%; GLP-1R agonist: -3%; PTHR1 agonist: -21%; miR-21 reporter: 1%

Carrying on.
nr	Molecule	Pin1 inhibitor	GLP-1R inv ag	GLP1R cytotox
25	CCOC(=O)C1Nc2ccc(OC(F)(F)F)cc2C2C=CCC12 (stereo not given)	u	5%	3%
26	CCOC(=O)C1Nc2ccccc2C2C(O)C(O)CC12 (stereo not given)	x	17%	7.1µM*
27	Cc1ccc([N+](=O)[O-])cc1NC(=O)CN(C(=O)c1ccccc1Cl)C1CCCCC1	7%	10µM*	-30%
28	Cc1ccc([N+](=O)[O-])cc1NC(=O)CN(C1CCCCC1)S(=O)(=O)c1ccc(Cl)cc1	1%	u	73%
29	Nc1c(Br)cc(Br)c2cccnc12	-1%	x	x
30	CC1CCCCC1NCC(=O)Nc1ccccc1-c1ccccc1 (stereo not given)	-2%	4.5µM*	0%
31	COc1ccc(Nc2ncnc3c2nc2n3CCCC2)cc1Cl	-3%	12%	-7%
32	O=C(OCCN1C(=O)c2cccc3c(N4CCOCC4)ccc(c23)C1=O)c1ccc(Cl)cc1Cl	u	1.3µM*	i
33	CCOc1cccc(C2C=C(c3ccc4c(c3)OCO4)NC(c3ccc(Br)cc3)N2)c1O (stereo not given)	13%	x	x
34	O=C(/C=C\Nc1cccc(F)c1)c1ccc2c(c1)OCO2	6%	10µM*	6%
35	COC(=O)c1ccc(N/C=C\C(=O)c2ccc3c(c2)OCO3)cc1	3%	50%[7.66 µM]	8%[7.66 µM]
36	CN=C1c2cc3cc(OC)ccc3n2CCN1Cc1ccccc1	-2%	5µM*	-15%

nr	GLP-1R agonist	PTHR1 agonist	miR-21 reporter
25	-2%	-42%	x
26	4%	-32%	x
27	-12%	i	4%
28	-23%	i	6%
29	x	x	x
30	5%	0%[57.5 µM]	-7%
31	x	-91%	-31%
32	-9%	-3%	3%
33	x	x	x
34	-4%	-6%	-2%
35	5%	-24%	-3%
36	10%	i	23%

More results:
nr	Molecule	Pin1 inhibitor	GLP-1R inv ag	GLP1R cytotox
37	COc1cccc(C(C)NC(=O)Nc2ccccc2Cl)c1 (stereo not given)	-7%	13µM*	23%
38	COc1cccc(C(C)NC(=O)c2c(F)cccc2Cl)c1 (stereo not given)	2%	-8%	-8%
39	CC(C)(C)c1ccc(C(=O)NNc2cc(N3CCCCC3)nc(N3CCCCC3)n2)cc1	4%	3.2µM*	u
40	CC(C(=O)O)c1ccc(N2Cc3ccccc3C2=O)cc1 (stereo not given)	-9%	6.3µM*	2%
41	CN(C)CC(=O)Nc1ccc(Oc2ccc(Cl)cc2)cc1	-3%	5µM*	9%
42	O=C(NC(=S)Nc1ccc(Cl)cc1)c1ccccc1	-4%	14%	-1%

nr	GLP-1R agonist	PTHR1 agonist	miR-21 reporter
37	-1%	-7%	1%
38	0%	i	-1%
39	-9%	i	10%
40	-11%	-56%	14%
41	15%	-2%	-16%
42	20%	i	-65%
